The text below walks through data of ChEMBL document CHEMBL1124682, “Quaternary salts of 2-[(hydroxyimino)methyl]imidazole. 3. Synthesis and evaluation of (alkenyloxy)-, (alkynyloxy)-, and (aralkyloxy)methyl quaternarized 2-[(hydroxyimino)methyl]-1-alkylimidazolium halides as reactivators and therapy for soman intoxication” (1989).

Experiment [1] deals with T1, Acetylcholinesterase (Homo sapiens, UniProt P22303). Description: Reversible inhibition of acetylcholinesterase (AChE) by 50 % in human erythrocytes.
Experiment [2] has as its target T1, Acetylcholinesterase. Description: Concentration of compound that reversibly inhibits acetylcholinesterase (AChE) by 50 %.

Structures are written as SMILES. pIC50: −log10 of the molar value.

Broadly, the pIC50 is −log10 of the IC50, conventionally taken in molar units. Low values mean a large IC50, high ones a small IC50. Regarding `C#CCCCC[n+]1ccn(C(C)(C)C)c1/C=N/O`, the pIC50 in experiment [1] is 4.12. In experiment [1], `C#CCCOC[n+]1ccn(C)c1C` gave a pIC50 of 4.57. Take `C#CCCCC[n+]1ccccc1/C=N/O`: the pIC50 in experiment [2] is 4.21. Regarding `C#CCCCC[n+]1cn(C)c(/C=N/O)n1`, the pIC50 in experiment [2] is 4.20.
